This is a selection; strong and weak results do not stand in their true shares. Some of these compounds have results that are not shown, active ones among them. Calls of active or inactive are those of the source.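 The calls were made as follows: active = inhibition at 20 µM, scaled to each plate's controls, above about 33% (limit read from the data); inactive = the rest.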
Target: 26S proteasome non-ATPase regulatory subunit 14 (Homo sapiens) (UniProt O00487)
Test: inhibition of 26S proteasome subunit Rpn11 – biochemical, fluorescence polarization, uHTS, primary screen (AID 588493)
Conditions: human 26S proteasome, Ub4-pepOG fluorescence polarization; at 20 µM; stronger effect = higher value; 20S core pre-blocked with epoxomicin

The chains behind the UniProt entries cited, without tags or fusion partners.
UniProt O00487, whole entry: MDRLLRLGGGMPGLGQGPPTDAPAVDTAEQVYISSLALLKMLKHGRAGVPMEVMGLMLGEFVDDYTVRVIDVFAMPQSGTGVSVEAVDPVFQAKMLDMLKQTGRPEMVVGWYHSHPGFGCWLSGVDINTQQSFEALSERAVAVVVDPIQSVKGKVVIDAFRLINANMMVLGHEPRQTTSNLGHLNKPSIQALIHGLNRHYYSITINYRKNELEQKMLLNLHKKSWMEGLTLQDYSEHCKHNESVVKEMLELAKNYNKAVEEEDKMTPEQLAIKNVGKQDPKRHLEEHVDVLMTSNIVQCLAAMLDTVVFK

**Q.** `Cc1cc(C(=O)NCC2(N3CCCCC3)CCCCC2)ccc1[N+](=O)[O-]` was tested. Which inhibition did it give?
**A.** inactive: -0.2%

**Q.** For `CCN1CCCC(OC(=O)C2(O)c3ccccc3C=Cc3ccccc32)C1` (stereo unspecified), which inhibition is on record?
**A.** inactive: -6.4%

**Q.** For `O=C(NCC1(N2CCCCC2)CCCCC1)c1cccc(Br)c1`, which inhibition is on record?
**A.** inactive: 0.3%

**Q.** `COc1ccc(C(=O)NCC2(N(C)C)CCCCC2)cc1` was tested. Which inhibition did it give?
**A.** inactive: 7.8%

**Q.** For `C=CCN1CCN(CCOC(=O)C(O)(c2ccccc2)c2ccccc2)CC1`, which inhibition is on record?
**A.** inactive: -6.3%

**Q.** With `O=C(NCC1(N2CCCCC2)CCCCC1)c1cc(F)c(F)cc1Cl` as the compound, how does the inhibition read?
**A.** inactive: 1.6%

**Q.** For `Cc1ccccc1C(=O)NCC1(N2CCCCC2)CCCCC1`, which inhibition is on record?
**A.** inactive: -0.6%

**Q.** For `CN(C)C1CCCC1OC(=O)C(O)(c1ccccc1)c1ccccc1` (stereo unspecified), which inhibition is on record?
**A.** inactive: 0%

**Q.** For `CN(C)c1ccc(C(=O)NCC2(N(C)C)CCCCC2)cc1`, which inhibition is on record?
**A.** inactive: -1.3%

**Q.** How did the inhibition turn out when `Cc1ccc(C(=O)NCC2(N3CCCCC3)CCCCC2)cc1` was run?
**A.** inactive: 5.3%

**Q.** For `CC(C)N1C(=O)CC2(CCN(CCOC(=O)C(O)(c3ccccc3)c3ccccc3)CC2)C1=O`, which inhibition is on record?
**A.** inactive: -0.4%

**Q.** `CCN(CC)CC(C)C(C)OC(=O)C(O)(c1ccccc1)c1ccccc1` (stereo unspecified) was tested. Which inhibition did it give?
**A.** inactive: 0.6%

**Q.** For `COc1cc(SC)ccc1C(=O)NCC1(N(C)C)CCCCC1`, which inhibition is on record?
**A.** inactive: 2.3%

**Q.** Which inhibition does the source give for `CN1[C@@H]2CC[C@H]1CC(OC(=O)C(O)(c1ccccc1)c1ccccc1)C2` (stereo partly specified) here?
**A.** inactive: -9.8%

**Q.** With `O=C(NCC1(N2CCCCC2)CCCCC1)c1cc([N+](=O)[O-])ccc1Cl` as the compound, how does the inhibition read?
**A.** inactive: 15%

**Q.** For `CN(C)c1cccc(C(=O)NCC2(N(C)C)CCCCC2)c1`, which inhibition is on record?
**A.** inactive: -3.9%

**Q.** With `CC(C)Oc1ccc(C(=O)NCC2(N(C)C)CCCCC2)cc1` as the compound, how does the inhibition read?
**A.** inactive: -4.8%

**Q.** How did the inhibition turn out when `O=C(OCCN1CCCC1)C(O)(c1ccccc1)c1ccccc1` was run?
**A.** inactive: 1.8%

**Q.** How did the inhibition turn out when `COc1ccc(Br)c(C(=O)NCC2(N3CCCCC3)CCCCC2)c1` was run?
**A.** inactive: 11.5%

**Q.** How did the inhibition turn out when `C=C(C)C#CC(O)(C(=O)OC1CCN(C)CC1)c1ccccc1` (stereo unspecified) was run?
**A.** inactive: 3.2%

**Q.** Which inhibition does the source give for `O=C(OC1CN2CCC1CC2)C(CO)(c1ccccc1)c1ccccc1` (stereo unspecified) here?
**A.** inactive: -3.5%

**Q.** For `O=C(NCC1(N2CCCCC2)CCCCC1)c1cccc(Cl)c1`, which inhibition is on record?
**A.** inactive: -0.5%

**Q.** With `COc1cccc(C(=O)NCC2(N3CCCCC3)CCCCC2)c1` as the compound, how does the inhibition read?
**A.** inactive: -3.5%

**Q.** With `COc1ccc(Cl)cc1C(=O)NCC1(N(C)C)CCCCC1` as the compound, how does the inhibition read?
**A.** inactive: 4.5%

**Q.** `COc1cc(C(=O)NCC2(N(C)C)CCCCC2)c([N+](=O)[O-])cc1OC` was tested. Which inhibition did it give?
**A.** inactive: 0.8%

**Q.** For `CN(C)C1(CNC(=O)c2ccc(Br)cc2)CCCCC1`, which inhibition is on record?
**A.** inactive: -15.5%

— PubChem BioAssay AID588493 (Sanford-Burnham Center for Chemical Genomics, 2011)
